Test results published in patent US7829297B2, “Treatment of cancers expressing p95 ErbB2” (GlaxoSmithKline LLC, priority 2003, dated 2010).

How the values were obtained:
[1] = tested on: p95^ErbB2; experiment: Western blot of p95ErbB2 in BT474 cells; format: cell-based, human; conditions: 24 hours
[2] = tested on: p95^ErbB2; experiment: p95ErbB2 in BT474 tumor xenografts (Western blot); format: in vivo, mice
Description: BT474 tumor xenografts were established in CD-1 nude mice.

[3] = tested on: MAPK-Erk1/2 and PI3K-AKT pathways, cyclin D1/2; experiment: Downstream signaling in BT474 tumor xenografts (Western blot); format: in vivo, mice; conditions: GW572016 or trastuzumab (10 mg/kg)
Method: Equal amounts of protein from tumor xenograft whole cell extracts were separated by SDS-PAGE and steady state protein levels of total and phosphorylated forms Erk1/2 and AKT were assessed by Western blot. Cyclin D1/2 steady state protein levels were also determined. Steady state protein levels of actin confirmed equal loading of protein.

[4] = tested on: ErbB2 ECD shedding, breast adenocarcinoma cell lines; conditions: Molina et al. 2001; cited from earlier work

trastuzumab: humanized anti-ErbB2 monoclonal antibody that binds the extracellular domain of ErbB2 [reference compound]
tyrosine phosphorylation of p95ErbB2 (anti-pTyr mAb) ([1]; 0.5 μM GW572016 or 10 μg/ml trastuzumab): did not have a similar inhibitory effect
p95ErbB2 steady state protein levels (anti-ErbB2 peptide 1243-1255 mAb) ([1]; 10 μg/ml): reduced
steady state protein levels of total p95ErbB2 ([2]; GW572016 100 mg/kg/dose PO or trastuzumab IP): unchanged
Y1248 phosphorylation in p95ErbB2 ([2]; GW572016 100 mg/kg/dose or trastuzumab): did not appear to have any marked effect
cyclin D steady state protein levels [3]: had little effect
p-AKT steady state protein levels [3]: had little effect
p-Erk1/2 steady state protein levels [3]: had little effect
ECD shedding from two breast adenocarcinoma cell lines [4]: reduced ECD shedding
